Screening results as filed in PubChem BioAssay.
In the library only some 2.2% were active in any assay of this set; here they are far more common.
A549 viability: counter-screen for Nrf2 inhibitors: cytotoxicity in A549 cells. Potency, µM (titrated, usually from 46 µM), without a hit: at the top dose activity change, negative = cytotoxicity, actives largely listed as inhibitors. A549 ARE-Fluc cells, CellTiter-Fluor viability, 18-24 h. actives 0.16% (n = 390,000); further: potency means the concentration at half of the fitted maximal effect; on the % scale 0 is the no-effect control and ±100 the full control effect
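A549 ARE-Fluc cells in 5% FBS OPTI-MEM, 5000 cells/well, rested 2 h then exposed to compounds in concentration-response for 18-24 h at 37 °C. Viability by CellTiter-Fluor fluorescence (Ex 405/Em 525) after 30 min; luciferase luminescence (BugLite, 15 min, RT) read afterwards.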
miR-21 reporter: raises the signal of a miR-21 reporter; HeLa miR-21 FLuc reporter, luciferase, 48 h; Potency, µM (series often up to 38.3 µM), inactives show top-dose reporter change, positive = more light; 340,000 tested, under 10 active; active = well fitted rising curve with a large enough effect; inconclusive = small, poorly fitted or top-dose-only effect; inactive = no such curve, though single readings can be large or run the other way;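 also: % of control where 0% means no effect; miR-21 action dims this reporter so a rising signal means less miR-21 action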
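HeLa cells endogenously expressing miR-21, stably carrying CMV-driven firefly luciferase with a downstream miR-21 binding site, 2000 cells/well. Titrations up to approximately 40 uM, 48 hours; luciferase luminescence read.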
Nrf2 inh: inhibitors of Nrf2 signaling; A549 ARE-Fluc reporter, luciferase luminescence, 18-24 h; Potency, µM (titrated, usually from 46 µM), for the others: at the highest dose activity change, negative = inhibition, most hits filed as inhibitors; actives 2.1% (n = 360,000); AID 504444; further: potency means the concentration at half of the fitted maximal effect; on the % scale 0 is the no-effect control and ±100 the full control effect; nearly all actives have a fitted effect of over 60% in size
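Two sequential reads on A549 ARE_Fluc cells exposed to compound for 18-24 h: a CellTiter-Fluor fluorescence read for viability, then a luciferase luminescence read for Nrf2/ARE activity.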
Nrf2 ARE act: activators of Nrf2 (ARE) signaling. AREc32 ARE-luciferase reporter (MCF7-derived line), luminescence, 24 h. Potency, µM (highest dose often 46.1 µM), without a hit: top-dose activation, actives largely listed as activators. actives 0.31% (n = 410,000). AID 624171; further: potency means the concentration at half of the fitted maximal effect; % of control where 0% means no effect; nearly all actives have a fitted effect of over 65% in size
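Cells of the AREc32 ARE-luciferase line are plated in OPTI-MEM containing 5% FBS and left overnight at 37 deg C. Compounds are pinned in, incubation continues 24 hr, and firefly luciferase signal is then measured.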
B2AR arrestin: beta2AR (human) beta-arrestin recruitment activity; P07550; Potency, µM (series often up to 46.1 µM), without a hit: at the top dose activation, hits mostly activators; actives 0.02% (n = 330,000); beta-arrestin recruitment to beta2AR, cell-based reporter;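 further: potency means the concentration at half of the fitted maximal effect; 0% = DMSO controls and full agonism = EC100 isoproterenol or metaproterenol; nearly all actives have a fitted effect of over 65% in size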
Starred values were filed as active, the others as inactive. The call rests on the fitted dose curve; in most records, active means well fitted curve in the direction sought with a large enough effect; inconclusive means small, poorly fitted or top-dose-only effect, or another doubt; inactive means no such curve, though single readings can be large; an effect the other way counts as inactive or inconclusive.

Screening C(=N\c1ncnc2sccc12)/NOCc1ccccc1 returned A549 viability 1.2%, miR-21 reporter 13.5%, Nrf2 ARE act 0.0% and B2AR arrestin -0.3%.
`Cc1ccc(OCCSc2nc3ccc(NC(=O)c4ccc5c(c4)OCO5)cc3s2)cc1` gave A549 viability -1.3%, miR-21 reporter 0.3%, Nrf2 inh 9.0% and Nrf2 ARE act -0.4%.
CCOC(=O)c1c(Nc2ccc(C)c(C)c2)nnc(-c2ccccc2)c1-c1ccccc1 was read as A549 viability -0.6%, miR-21 reporter 24.4%, Nrf2 inh -18.1% and Nrf2 ARE act 1.1%.
Screening Cc1c(C(=O)Nc2nccs2)oc2ccc(F)cc12 returned A549 viability 2.3%, Nrf2 inh inconclusive, Nrf2 ARE act 9.1% and B2AR arrestin 0.4%.
Cc1c(C(=O)/C=C/c2cccs2)oc2ccc(F)cc12 was read as A549 viability 1.6%, miR-21 reporter -15.2%, Nrf2 inh inconclusive, Nrf2 ARE act 7.94µM* and B2AR arrestin 0.2%.
For COc1ccc(-c2nc3ncccc3o2)cc1NC(=O)c1cccs1 the results were A549 viability 0.2%, miR-21 reporter -0.5%, Nrf2 inh -15.1%, Nrf2 ARE act 1.8% and B2AR arrestin 0.0%.
Screening O=C(Nc1cc(-c2nc3ncccc3o2)ccc1Cl)c1cccs1 returned A549 viability -8.3%, miR-21 reporter 4.2%, Nrf2 inh -2.0%, Nrf2 ARE act 6.31µM* and B2AR arrestin -0.4%.
`CSc1cccc(NC(=O)CN2CCN(Cc3ccccc3C)S2(=O)=O)c1` gave A549 viability -0.5%, miR-21 reporter 14.2%, Nrf2 inh inconclusive and Nrf2 ARE act 3.5%.
`CCOc1ccc(CNC(=O)c2ccc3c(c2)c(C)c(C)n3Cc2ccc(Cl)cc2)cc1` gave A549 viability -16.8%, miR-21 reporter 8.5%, Nrf2 inh inconclusive and Nrf2 ARE act -0.9%.
`CN(C)CCCNc1cc(O)c2ncccc2c1` gave A549 viability 10.3µM*, Nrf2 inh 5.17µM*, Nrf2 ARE act -4.0% and B2AR arrestin -0.1%.
For Cc1ccc(CNCc2cc3c(C(C)(C)C)nn(-c4ccccc4)c3[nH]c2=O)cc1 the results were A549 viability -15.4%, miR-21 reporter -10.5%, Nrf2 inh inconclusive, Nrf2 ARE act 5.6% and B2AR arrestin -0.2%.
For COc1ccc(CNCc2cc3c(C(C)(C)C)nn(-c4ccccc4)c3[nH]c2=O)cc1 the results were A549 viability -25.0%, miR-21 reporter -16.0%, Nrf2 inh 18.4µM*, Nrf2 ARE act 7.3% and B2AR arrestin 0.0%.
For Cc1nc(N2CCCCC2)sc1C(=O)c1ccc(SCCO)c([N+](=O)[O-])c1 the results were A549 viability inconclusive, miR-21 reporter 2.8%, Nrf2 inh 20.6µM*, Nrf2 ARE act 4.3% and B2AR arrestin 0.1%.
For COc1ccc(CN2CCN(C(=O)c3ccc(S(=O)(=O)N4CCCCCC4)cc3)CC2)cc1F the results were A549 viability -19.8%, Nrf2 inh 9.2µM*, Nrf2 ARE act 0.7% and B2AR arrestin -0.2%.
O=C(C1CCN(S(=O)(=O)c2ccccc2)CC1)N1CCN(Cc2ccc3c(c2)OCO3)CC1 was read as A549 viability 1.7%, miR-21 reporter 7.0%, Nrf2 inh -19.4%, Nrf2 ARE act -0.4% and B2AR arrestin 0.3%.
Screening N#Cc1ccc(CN2CCN(C(=O)c3ccc(S(=O)(=O)N4CCCCCC4)cc3)CC2)cc1 returned A549 viability -9.1%, Nrf2 inh 16.4µM*, Nrf2 ARE act -0.3% and B2AR arrestin 0.0%.
For O=C(c1ccc(S(=O)(=O)N2CCCCCC2)cc1)N1CCN(Cc2ccccc2)CC1 the results were A549 viability -1.9%, Nrf2 inh inconclusive, Nrf2 ARE act -0.2% and B2AR arrestin -0.7%.
`N#Cc1ccc(S(=O)(=O)N2CCC(C(=O)N3CCN(Cc4ccc5c(c4)OCO5)CC3)CC2)cc1` gave A549 viability -8.2%, Nrf2 inh 18.4µM*, Nrf2 ARE act -0.4% and B2AR arrestin -0.5%.
Screening O=c1c(S(=O)(=O)c2ccccc2)cn(Cc2ccc(F)cc2)c2cc(N3CCCC3)c(F)cc12 returned A549 viability 8.0%, miR-21 reporter 3.9%, Nrf2 inh 30.0% and Nrf2 ARE act -0.1%.
For O=S(=O)(c1cccc(Cl)c1)N1CCN(c2nc(-c3cccs3)nc3ccccc23)CC1 the results were A549 viability -3.7% and Nrf2 inh inconclusive.
CCOC(=O)c1ccc(NC(=S)Nc2ccc(C)cc2)cc1 was read as A549 viability -8.6%, miR-21 reporter -22.2%, Nrf2 inh inconclusive, Nrf2 ARE act 0.4% and B2AR arrestin -0.1%.
Screening CCOC(=O)c1ccc(NC(=S)NNC(C)(C)C)cc1 returned A549 viability 2.7%, miR-21 reporter -48.2%, Nrf2 inh 1.6%, Nrf2 ARE act inconclusive and B2AR arrestin 22.4µM*.
`CCC(C)NC(=S)Nc1ccc(C(=O)OC)cc1` (stereo unspecified) gave A549 viability -18.6%, miR-21 reporter -8.2%, Nrf2 inh 18.4µM*, Nrf2 ARE act -0.4% and B2AR arrestin -0.1%.
For Cc1ccc2c(c1)[C@H]1[C@H](CO2)[C@H](c2ccccc2)[C@]2(C)C(=O)N(C)CC(=O)N12 the results were A549 viability -6.8%, Nrf2 inh 20.6µM* and Nrf2 ARE act 1.7%.
`CC(=O)Nc1ccc(S(=O)(=O)Nc2ccc3nc(C)sc3c2)cc1` gave A549 viability -15.3%, Nrf2 inh 16.4µM*, Nrf2 ARE act 1.5% and B2AR arrestin 3.8%.
For Cc1nc2ccc(NS(=O)(=O)c3ccc(Br)cc3)cc2s1 the results were A549 viability -0.1%, Nrf2 inh 14.6µM*, Nrf2 ARE act 6.4% and B2AR arrestin -0.3%.
For COc1ccccc1S(=O)(=O)Nc1ccc2nc(C)sc2c1 the results were A549 viability -0.5%, Nrf2 inh inconclusive, Nrf2 ARE act 2.3% and B2AR arrestin -0.9%.
Screening Cc1ccc(S(=O)(=O)Nc2ccc3nc(C)sc3c2)c(C)c1 returned A549 viability -11.6%, Nrf2 inh inconclusive, Nrf2 ARE act 0.4% and B2AR arrestin -0.2%.
Screening Cc1nc2ccc(NS(=O)(=O)c3ccc(F)c(F)c3)cc2s1 returned A549 viability 2.7%, Nrf2 inh 16.4µM*, Nrf2 ARE act 2.1% and B2AR arrestin 0.1%.
Screening Cc1ccc(S(=O)(=O)Nc2ccc3nc(C)sc3c2)cc1 returned A549 viability -5.5%, miR-21 reporter 1.2%, Nrf2 inh 14.6µM*, Nrf2 ARE act 2.7% and B2AR arrestin -0.2%.
Screening Cc1ccccc1Nc1cc(C(=O)NC2CCC(C)CC2)c2ccccc2n1 (stereo unspecified) returned A549 viability 0.2%, miR-21 reporter -37.8%, Nrf2 inh inconclusive and Nrf2 ARE act 4.5%.

4 compounds drawn at random from those above:
CCOC(=O)c1ccc(NC(=S)Nc2ccc(C)cc2)cc1 was read as A549 viability -8.6%, miR-21 reporter -22.2%, Nrf2 inh inconclusive, Nrf2 ARE act 0.4% and B2AR arrestin -0.1%.
Cc1c(C(=O)/C=C/c2cccs2)oc2ccc(F)cc12 was read as A549 viability 1.6%, miR-21 reporter -15.2%, Nrf2 inh inconclusive, Nrf2 ARE act 7.94µM* and B2AR arrestin 0.2%.
`CN(C)CCCNc1cc(O)c2ncccc2c1` gave A549 viability 10.3µM*, Nrf2 inh 5.17µM*, Nrf2 ARE act -4.0% and B2AR arrestin -0.1%.
Screening N#Cc1ccc(CN2CCN(C(=O)c3ccc(S(=O)(=O)N4CCCCCC4)cc3)CC2)cc1 returned A549 viability -9.1%, Nrf2 inh 16.4µM*, Nrf2 ARE act -0.3% and B2AR arrestin 0.0%.
